Values of other authors in PubChem BioAssay AID977610.

Experiments:
Assay in all cases: PubChem AID 977610
[1] = biological target: nuclear receptor ror-beta; details: PDB protein-ligand complexes, literature Ki; protein: nuclear receptor ror-beta; PDB entry 1NQ7
NEURAMINIDASE A = details: PDB protein-ligand complexes, literature Ki; protein: NEURAMINIDASE A; PDB entry 2YA6
sialidase = details: PDB protein-ligand complexes, literature Ki; protein: sialidase; PDB entry 1N1T
[2] = biological target: diaminopimelate decarboxylase; details: PDB protein-ligand complexes, literature Ki; protein: diaminopimelate decarboxylase; PDB entry 1TUF
thrombin = details: PDB protein-ligand complexes, literature Ki; protein: thrombin; PDB entry 1GJ5
metalloproteinase = details: PDB protein-ligand complexes, literature Ki; protein: metalloproteinase; PDB entry 1KUI
[3] = biological target: oxygen-insensitive nad(p)h nitroreductase; details: PDB protein-ligand complexes, literature Ki; protein: oxygen-insensitive nad(p)h nitroreductase; PDB entry 1KQB
antibody fab fragment = details: PDB protein-ligand complexes, literature Ki; protein: antibody fab fragment; PDB entry 1IBG
glutamate receptor 2 = details: PDB protein-ligand complexes, literature Ki; protein: glutamate receptor 2; PDB entry 1XHY
ermc' methyltransferase = details: PDB protein-ligand complexes, literature Ki; protein: ermc' methyltransferase; PDB entry 1QAQ
[4] = biological target: 5(3)-deoxyribonucleotidase; details: PDB protein-ligand complexes, literature Ki; protein: 5(3)-deoxyribonucleotidase; PDB entry 1Q91
[5] = biological target: phosphoenolpyruvate carboxykinase (PEPCK),mutation A467G; details: PDB protein-ligand complexes, literature Ki; protein: phosphoenolpyruvate carboxykinase (PEPCK),mutation A467G; PDB entry 3MOE
[6] = biological target: phosphoenolpyruvate phosphomutase; details: PDB protein-ligand complexes, literature Ki; protein: phosphoenolpyruvate phosphomutase; PDB entry 1M1B
isocitrate dehydrogenase = details: PDB protein-ligand complexes, literature Ki; protein: isocitrate dehydrogenase; PDB entry 1GRP
[7] = biological target: hiv-1 protease (hiv-1 pr); details: PDB protein-ligand complexes, literature Ki; protein: hiv-1 protease (hiv-1 pr); PDB entry 1HIV
ornithine decarboxylase = details: PDB protein-ligand complexes, literature Ki; protein: ornithine decarboxylase; PDB entry 1NJJ
[8] = biological target: Homocitrate synthase, mitochondrial,HCS; details: PDB protein-ligand complexes, literature Ki; protein: Homocitrate synthase, mitochondrial,HCS; PDB entry 3MI3
Homocitrate synthase = details: PDB protein-ligand complexes, literature Ki; protein: Homocitrate synthase; PDB entry 3A9I
[9] = biological target: ribulose-1,5 bisphosphate carboxylase/oxygenase; details: PDB protein-ligand complexes, literature Ki; protein: ribulose-1,5 bisphosphate carboxylase/oxygenase; PDB entry 1OZV
FK506 binding protein = details: PDB protein-ligand complexes, literature Ki; protein: FK506 binding protein; PDB entry 1J4R
[10] = biological target: deoxyuridine 5'-triphosphate nucleotidohydrolase; details: PDB protein-ligand complexes, literature Ki; protein: deoxyuridine 5'-triphosphate nucleotidohydrolase; PDB entry 1DUD
neuraminidase = details: PDB protein-ligand complexes, literature Ki; protein: neuraminidase; PDB entry 1F8C
xaa-pro aminopeptidase = details: PDB protein-ligand complexes, literature Ki; protein: xaa-pro aminopeptidase; PDB entry 1N51
secretase beta = details: PDB protein-ligand complexes, literature Ki; protein: secretase beta; PDB entry 1FKN
[11] = biological target: 5'-deoxy-5'-methylthioadenosine phosphorylase; details: PDB protein-ligand complexes, literature Ki; protein: 5'-deoxy-5'-methylthioadenosine phosphorylase; PDB entry 1K27
mta/sah nucleosidase = details: PDB protein-ligand complexes, literature Ki; protein: mta/sah nucleosidase; PDB entry 1Y6R
epoxide hydrolase = details: PDB protein-ligand complexes, literature Ki; protein: epoxide hydrolase; PDB entry 1EK1
[12] = biological target: hypoxanthine phosphoribosyltransferase; details: PDB protein-ligand complexes, literature Ki; protein: hypoxanthine phosphoribosyltransferase; PDB entry 1G9T
6-phosphofructokinase = details: PDB protein-ligand complexes, literature Ki; protein: 6-phosphofructokinase; PDB entry 1MTO
[13] = biological target: serine/threonine-protein kinase chk1; details: PDB protein-ligand complexes, literature Ki; protein: serine/threonine-protein kinase chk1; PDB entry 1NVQ
carboxypeptidase a = details: PDB protein-ligand complexes, literature Ki; protein: carboxypeptidase a; PDB entry 1CBX
[14] = biological target: serine carboxypeptidase ii; details: PDB protein-ligand complexes, literature Ki; protein: serine carboxypeptidase ii; PDB entry 1WHT
coagulation factor xa = details: PDB protein-ligand complexes, literature Ki; protein: coagulation factor xa; PDB entry 1FAX
proline-trna synthetase = details: PDB protein-ligand complexes, literature Ki; protein: proline-trna synthetase; PDB entry 1NJ5
[15] = biological target: protein-tyrosine phosphatase, non-receptor type; details: PDB protein-ligand complexes, literature Ki; protein: protein-tyrosine phosphatase, non-receptor type; PDB entry 1Q1M
[16] = biological target: beta-hydroxysteroid dehydrogenase; details: PDB protein-ligand complexes, literature Ki; protein: beta-hydroxysteroid dehydrogenase; PDB entry 1I5R
[17] = biological target: phosphonoacetaldehyde hydrolase; details: PDB protein-ligand complexes, literature Ki; protein: phosphonoacetaldehyde hydrolase; PDB entry 1RQL
thrombin pro = details: PDB protein-ligand complexes, literature Ki; protein: thrombin pro; PDB entry 1K21
[18] = biological target: retinoic acid receptor rxr-alpha; details: PDB protein-ligand complexes, literature Ki; protein: retinoic acid receptor rxr-alpha; PDB entry 1FM9
alkaline phosphatase = details: PDB protein-ligand complexes, literature Ki; protein: alkaline phosphatase; PDB entry 1EW8
[19] = biological target: mannose-binding protein-c; details: PDB protein-ligand complexes, literature Ki; protein: mannose-binding protein-c; PDB entry 1RDN
[20] = biological target: Beta-galactosidase(S796A mutant); details: PDB protein-ligand complexes, literature Ki; protein: Beta-galactosidase(S796A mutant); PDB entry 3T08
[21] = biological target: Beta-galactosidase(S796D mutant); details: PDB protein-ligand complexes, literature Ki; protein: Beta-galactosidase(S796D mutant); PDB entry 3T2P
[22] = biological target: Beta-galactosidase(S796T mutant); details: PDB protein-ligand complexes, literature Ki; protein: Beta-galactosidase(S796T mutant); PDB entry 3T0B
Beta-galactosidase [23] = details: PDB protein-ligand complexes, literature Ki; protein: Beta-galactosidase; PDB entry 3I3D
[24] = biological target: E. coli (lacZ) beta-galactosidase (H418N); details: PDB protein-ligand complexes, literature Ki; protein: E. coli (lacZ) beta-galactosidase (H418N); PDB entry 3DYO
[25] = biological target: E. coli (lacZ) beta-galactosidase (N460D mutant); details: PDB protein-ligand complexes, literature Ki; protein: E. coli (lacZ) beta-galactosidase (N460D mutant); PDB entry 3VD4
[26] = biological target: E. coli (lacZ) beta-galactosidase (N460S mutant); details: PDB protein-ligand complexes, literature Ki; protein: E. coli (lacZ) beta-galactosidase (N460S mutant); PDB entry 3VD9
[27] = biological target: E. coli (lacZ) beta-galactosidase (N460T mutant); details: PDB protein-ligand complexes, literature Ki; protein: E. coli (lacZ) beta-galactosidase (N460T mutant); PDB entry 3VDC
beta-galactosidase [28] = details: PDB protein-ligand complexes, literature Ki; protein: beta-galactosidase; PDB entry 1PX4
uracil-dna glycosylase = details: PDB protein-ligand complexes, literature Ki; protein: uracil-dna glycosylase; PDB entry 1UI0
[29] = biological target: chloramphenicol acetyltransferase iii; details: PDB protein-ligand complexes, literature Ki; protein: chloramphenicol acetyltransferase iii; PDB entry 1QCA
[30] = biological target: isopentenyl diphosphate delta-isomerase; details: PDB protein-ligand complexes, literature Ki; protein: isopentenyl diphosphate delta-isomerase; PDB entry 1Q54

Compound: CC(/C=C/C=C(\C)c1cc(C(C)(C)C)cc(C(C)(C)C)c1)=C\C(=O)O
- Ki [1]: 0.16 µM

Compound: CC(=O)N[C@H]1[C@H]([C@H](O)[C@H](O)CO)OC(C(=O)O)=C[C@@H]1O
- Ki (NEURAMINIDASE A): 2 µM
- Ki (sialidase): 140 µM

Compound: O=C(O)CCCCCCCC(=O)O
- Ki [2]: 89 µM

Compound: N=C(N)c1ccc2nc(-c3cccc(-c4ccccc4)c3O)[nH]c2c1
- Ki (thrombin): 11 µM

Compound: NC(=O)CC[C@H](NC(=O)[C@@H]1CCC(=O)N1)C(=O)N[C@@H](Cc1c[nH]c2ccccc12)C(=O)O
- Ki (metalloproteinase): 169 µM

Compound: O=C(O)c1ccccc1
- Ki [3]: 100 µM

Compound: C[C@@H]1O[C@@H](O[C@H]2C[C@@H](O)[C@]3(CO)[C@H]4[C@H](O)C[C@]5(C)[C@@H](C6=CC(=O)OC6)CC[C@]5(O)[C@@H]4CC[C@]3(O)C2)[C@H](O)[C@H](O)[C@H]1O
- Ki (antibody fab fragment): 0.0028 µM

Compound: CC(C)[C@H]1CN[C@H](C(=O)O)[C@H]1CC(=O)O
- Ki (glutamate receptor 2): 0.662 µM

Compound: Nc1ncnc2c1ncn2[C@@H]1O[C@H](C[C@@H](N)CC[C@H](N)C(=O)O)[C@@H](O)[C@H]1O
- Ki (ermc' methyltransferase): 18 µM

Compound: Cc1cn([C@H]2C[C@H]3O[C@](c4ccccc4)(P(=O)(O)O)OC[C@H]3O2)c(=O)[nH]c1=O
- Ki [4]: 70 µM

Compound: O=C(O)C(=O)CS(=O)(=O)O
- Ki [5]: 50 µM
- Ki [6]: 22 µM

Compound: O=C(O)C[C@H](C(=O)O)[C@@H](O)C(=O)O
- Ki (isocitrate dehydrogenase): 189 µM

Compound: CC[C@H](C)[C@H](NC(=O)[C@H](C(C)C)[C@@H](O)[C@H](O)[C@H](CC1CCCCC1)NC(=O)[C@H](Cc1cnc[nH]1)NC(=O)COc1cccc2ccccc12)C(=O)NCc1ccccn1
- Ki [7]: < 0.001 µM

Compound: CN[C@@H]1[C@@H](O)[C@@H](O[C@@H]2[C@@H](O)[C@H](O[C@H]3O[C@H]([C@H](C)O)[C@@H](O)[C@H](O)[C@H]3N)[C@@H](N)C[C@H]2N)OC[C@]1(C)O
- Ki (ornithine decarboxylase): 8000 µM

Compound: NCCCC[C@H](N)C(=O)O
- Ki [8]: 3.56 µM
- Ki (Homocitrate synthase): 70.7 µM
- Ki [9]: 36600 µM

Compound: COc1cc(C(F)(F)C(=O)N2CCCC[C@H]2C(=O)O[C@@H](CCCc2ccccc2)CCCc2cccnc2)cc(OC)c1OC
- Ki (FK506 binding protein): 0.019 µM

Compound: O=c1ccn([C@H]2C[C@H](O)[C@@H](COP(=O)(O)OP(=O)(O)O)O2)c(=O)[nH]1
- Ki [10]: 15 µM

Compound: CC(=O)N[C@H]1[C@H]([C@H](O)[C@H](O)CO)OC(C(=O)O)=C[C@@H]1N
- Ki (neuraminidase): 0.04 µM

Compound: C[C@H](NC(=O)[C@@H]1CCCN1C(=O)[C@@H]1CCCN1C(=O)[C@@H](O)[C@H](N)Cc1ccccc1)C(N)=O
- Ki (xaa-pro aminopeptidase): 14 µM

Compound: CC(C)C[C@H](NC(=O)[C@H](CC(N)=O)NC(=O)[C@@H](NC(=O)[C@@H](N)CCC(=O)O)C(C)C)[C@@H](O)C[C@@H](C)C(=O)N[C@@H](C)C(=O)N[C@@H](CCC(=O)O)C(=O)N[C@@H](Cc1ccccc1)C(=O)O
- Ki (secretase beta): 0.0016 µM

Compound: CSC[C@H]1N[C@@H](c2c[nH]c3c(N)ncnc23)[C@H](O)[C@@H]1O
- Ki [11]: 0.001 µM
- Ki (mta/sah nucleosidase): 0.077 nM

Compound: O=C(Nc1ccc(I)cc1)NC1CCCCC1
- Ki (epoxide hydrolase): 0.017 µM

Compound: Nc1nc2c(ncn2[C@@H]2O[C@H](COP(=O)(O)O)[C@@H](O)[C@H]2O)c(=O)[nH]1
- Ki [12]: 526 µM

Compound: O=P(O)(O)OC[C@H]1O[C@](O)(CO)[C@@H](O)[C@@H]1O
- Ki (6-phosphofructokinase): 0.11 µM

Compound: CN[C@@H]1C[C@H]2O[C@@](C)([C@@H]1OC)n1c3ccccc3c3c4c(c5c6ccccc6n2c5c31)C(=O)NC4=O
- Ki [13]: 0.0056 µM

Compound: O=C(O)C[C@@H](Cc1ccccc1)C(=O)O
- Ki (carboxypeptidase a): 0.45 µM
- Ki [14]: 200 µM

Compound: CC(=N)N1CC[C@H](Oc2ccc([C@H](Cc3ccc4ccc(C(=N)N)cc4c3)C(=O)O)cc2)C1
- Ki (coagulation factor xa): 0.041 µM

Compound: Nc1ncnc2c1ncn2[C@@H]1O[C@H](COS(=O)(=O)NC(=O)[C@@H]2CCCN2)[C@@H](O)[C@H]1O
- Ki (proline-trna synthetase): 0.05 µM

Compound: COC(=O)c1c(O)cccc1OC/C=C/c1ccc(F)c(-c2cc(C(=O)O)no2)c1
- Ki [15]: 6.9 µM

Compound: C[C@]12CC[C@@H]3c4ccc(O)cc4CC[C@H]3[C@@H]1C[C@H](CCCCCCCCC(=O)OC[C@H]1O[C@@H](n3cnc4c(N)ncnc43)[C@H](O)[C@@H]1O)[C@@H]2O
- Ki [16]: 0.003 µM

Compound: C=CS(=O)(=O)O
- Ki [17]: 1790 µM

Compound: NC(N)=NCCCNC(=O)[C@@H]1CCCCN1C(=O)[C@@H](CC1CCCCC1)NCC(=O)O
- Ki (thrombin pro): 0.0042 µM

Compound: Cc1oc(-c2ccccc2)nc1CCOc1ccc(C[C@H](Nc2ccccc2C(=O)c2ccccc2)C(=O)O)cc1
- Ki [18]: 0.001 µM

Compound: O=C(O)CP(=O)(O)O
- Ki (alkaline phosphatase): 5500 µM

Compound: CC(=O)N[C@@H]1[C@@H](O)[C@H](O)[C@@H](CO)O[C@@H]1O
- Ki [19]: 14400 µM

Compound: CC(C)S[C@@H]1O[C@H](CO)[C@H](O)[C@H](O)[C@H]1O
- Ki [20]: 910 µM
- Ki [21]: 250 µM
- Ki [22]: 50 µM
- Ki (Beta-galactosidase [23]): 10300 µM
- Ki [24]: 5000 µM
- Ki [25]: 15 µM
- Ki [26]: 100 µM
- Ki [27]: 12 µM
- Ki (beta-galactosidase [28]): 590 µM

Compound: O=c1cc[nH]c(=O)[nH]1
- Ki (uracil-dna glycosylase): 0.088 µM

Compound: CC(=O)O[C@H]1C[C@@]2(C)[C@@H](C[C@@H](O)[C@H]3[C@@]4(C)CC[C@@H](O)[C@@H](C)[C@@H]4CC[C@@]32C)/C1=C(\CCC=C(C)C)C(=O)O
- Ki [29]: 5.4 µM

Compound: C[C@](O)(CBr)CCOP(=O)(O)OP(=O)(O)O
- Ki [30]: 1.4 µM
